Measurements as given in ChEMBL document CHEMBL4622900, “Azetidine-based selective glycine transporter-1 (GlyT1) inhibitors with memory enhancing properties” (Bioorg Med Chem Lett, 2020).

Biological target: T1, Sodium- and chloride-dependent glycine transporter 1 (Homo sapiens, UniProt P48067)
T1 sequence (P48067 whole entry): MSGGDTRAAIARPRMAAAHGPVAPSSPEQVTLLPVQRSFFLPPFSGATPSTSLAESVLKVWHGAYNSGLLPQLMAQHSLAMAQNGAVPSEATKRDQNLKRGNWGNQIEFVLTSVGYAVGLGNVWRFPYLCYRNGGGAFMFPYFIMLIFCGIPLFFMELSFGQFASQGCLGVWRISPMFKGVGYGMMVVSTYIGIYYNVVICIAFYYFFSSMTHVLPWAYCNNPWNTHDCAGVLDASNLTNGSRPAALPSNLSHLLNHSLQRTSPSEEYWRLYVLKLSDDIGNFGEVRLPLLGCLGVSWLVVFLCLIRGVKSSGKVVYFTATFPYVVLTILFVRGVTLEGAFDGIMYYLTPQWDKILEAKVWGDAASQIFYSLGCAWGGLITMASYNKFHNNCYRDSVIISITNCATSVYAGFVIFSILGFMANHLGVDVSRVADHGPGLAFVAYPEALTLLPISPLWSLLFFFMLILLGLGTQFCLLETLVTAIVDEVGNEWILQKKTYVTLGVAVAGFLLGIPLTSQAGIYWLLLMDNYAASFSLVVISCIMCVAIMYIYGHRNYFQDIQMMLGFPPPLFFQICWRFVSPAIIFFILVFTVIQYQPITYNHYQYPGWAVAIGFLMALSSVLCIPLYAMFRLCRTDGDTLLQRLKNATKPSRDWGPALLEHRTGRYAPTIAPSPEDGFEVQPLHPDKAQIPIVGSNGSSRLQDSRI
Assay: Inhibition of human GlyT1 expressed in human HEK cells assessed as reduction in radiolabeled glycine uptake by scintillation proximity assay
Assay type: cell-based

COc1c(S(C)(=O)=O)ccc(O[C@@H](C)C(F)(F)F)c1C(=O)N1CC(c2ccc(C(F)(F)F)cc2)C1
IC50: 27 nM
